Apparent affinities of Ab-95 variants for a coronavirus HR2 peptide

Reference: Engelhart et al. 2022, doi:10.1038/s41597-022-01779-4. File: FLAb, binding data.

Target: peptide PDVDLGDISGINAS, taken from heptad repeat 2 (HR2) of SARS-CoV-2 spike.

Ab-95 is the parent antibody, in scFv form: VH, then a (GGGGS)3 linker, then VL. The heavy chain is unchanged in all variants.
VH: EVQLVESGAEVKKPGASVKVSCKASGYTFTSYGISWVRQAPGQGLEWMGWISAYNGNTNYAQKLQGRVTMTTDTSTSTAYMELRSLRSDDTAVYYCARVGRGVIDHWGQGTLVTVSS
VL: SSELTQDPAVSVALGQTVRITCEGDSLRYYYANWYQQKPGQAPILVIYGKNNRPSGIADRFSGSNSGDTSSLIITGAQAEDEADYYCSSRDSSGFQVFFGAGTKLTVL

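The starting antibody came from a phage panning campaign against this peptide. In library AAYL52, one, two or three CDR residues were substituted; doubles and triples were drawn at random. Affinity was read by AlphaSeq, a pooled yeast mating assay with surface-displayed partners. The frequency of each diploid, read from paired DNA barcodes, reflects how well the two displayed proteins bind. A regression on co-assayed BCL2-family reference pairs converts the normalised counts of each replicate to an apparent Kd. There are three technical replicates.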

The parent's light chain CDRs are EGDSLRYYYAN, GKNNRPS, SSRDSSGFQVF; each variant's own CDRs replace them letter for letter.
Values are log10 of the apparent Kd in nM; lower means stronger binding.
Replicates are averaged; those with no signal do not enter the mean.
A pair that was not seen in that replicate is written "ND"; this usually means weak binding, but a binder can also be missed.
Nonspecific signal, from three strains lacking the peptide, appeared in 28% of pairings of library AAYL52, centred on 3.91 (5% of these signals below 2.90); values are not corrected for it. Also given: how often the same scFv was detected with the empty control strains, with their mean in brackets.
Parent in this assay: reference entry 2.31, copy in this library 2.25.

{"CDR-L1": "EGDQLRYYYAN", "CDR-L2": "GKNNQPS", "CDR-L3": "SSRDSSGVQVF", "replicates, log10 nM": "3.91 3.78 4.16", "mean log10 Kd (nM)": "3.95", "signal with controls": "3 of 9 (3.75)"}
{"CDR-L1": "EGDSLLYYYAN", "CDR-L2": "GKNNRPS", "CDR-L3": "SSCDSSGFMVF", "replicates, log10 nM": "4.54 3.83 ND", "mean log10 Kd (nM)": "4.18", "signal with controls": "5 of 9 (4.27)"}
{"CDR-L1": "EGDSLRYYRCN", "CDR-L2": "GKNNRPS", "CDR-L3": "SSRDSSGFWVF", "replicates, log10 nM": "2.97 ND ND", "mean log10 Kd (nM)": "2.97", "signal with controls": "1 of 9 (3.56)"}
{"CDR-L1": "EGWSLRYGYAN", "CDR-L2": "GLNNRPS", "CDR-L3": "SSRDSSGFQVF", "replicates, log10 nM": "1.27 1.26 0.86", "mean log10 Kd (nM)": "1.13", "signal with controls": "1 of 9 (4.42)"}
{"CDR-L1": "EGRSLRNYYAN", "CDR-L2": "GKNNRMS", "CDR-L3": "SSRDSSGFQVF", "replicates, log10 nM": "1.40 1.55 1.02", "mean log10 Kd (nM)": "1.32", "signal with controls": "4 of 9 (3.89)"}
{"CDR-L1": "RGDSLRYYYAN", "CDR-L2": "RKNMRPS", "CDR-L3": "SSRDSSGFQVF", "replicates, log10 nM": "5.20 ND 2.76", "mean log10 Kd (nM)": "3.98", "signal with controls": "2 of 9 (3.05)"}
{"CDR-L1": "EGDSLRYHYAN", "CDR-L2": "GKNNGPS", "CDR-L3": "STRDSSGFQVF", "replicates, log10 nM": "2.73 2.85 3.36", "mean log10 Kd (nM)": "2.98", "signal with controls": "5 of 9 (4.68)"}
{"CDR-L1": "EGDSLRYYYAN", "CDR-L2": "GKNNRPS", "CDR-L3": "RSRDSMGFQVF", "replicates, log10 nM": "3.44 2.79 2.23", "mean log10 Kd (nM)": "2.82", "signal with controls": "5 of 9 (3.59)"}
{"CDR-L1": "EGDSLRYYYAN", "CDR-L2": "GHNNRPE", "CDR-L3": "SHRDSSGFQVF", "replicates, log10 nM": "2.23 2.10 1.10", "mean log10 Kd (nM)": "1.81", "signal with controls": "2 of 9 (3.24)"}
{"CDR-L1": "KGDSLRYYYPN", "CDR-L2": "GKNNPPS", "CDR-L3": "SSRDSSGFQVF", "replicates, log10 nM": "2.00 2.11 2.42", "mean log10 Kd (nM)": "2.18", "signal with controls": "0 of 9"}
{"CDR-L1": "EGDSLFYYYAN", "CDR-L2": "GKNNRPA", "CDR-L3": "SSRDPSGFQVF", "replicates, log10 nM": "3.21 3.55 2.73", "mean log10 Kd (nM)": "3.16", "signal with controls": "3 of 9 (4.70)"}
{"CDR-L1": "EGDSLRYYYAN", "CDR-L2": "GKNNRHS", "CDR-L3": "SSRDYSGFQGF", "replicates, log10 nM": "ND ND ND", "mean log10 Kd (nM)": "ND", "signal with controls": "2 of 9 (3.73)"}
{"CDR-L1": "EGDSLRYYYAY", "CDR-L2": "GKNNRPF", "CDR-L3": "SLRDSSGFQVF", "replicates, log10 nM": "ND ND 4.10", "mean log10 Kd (nM)": "4.10", "signal with controls": "3 of 9 (3.92)"}
{"CDR-L1": "EGDSLRVYYAN", "CDR-L2": "GKNNRPW", "CDR-L3": "SSGDSSGFQVF", "replicates, log10 nM": "ND 3.19 ND", "mean log10 Kd (nM)": "3.19", "signal with controls": "1 of 9 (4.03)"}
{"CDR-L1": "EGDSLRYYLAN", "CDR-L2": "GKNNRPS", "CDR-L3": "SWRDSSGFQVF", "replicates, log10 nM": "2.16 3.07 2.70", "mean log10 Kd (nM)": "2.64", "signal with controls": "5 of 9 (3.84)"}
{"CDR-L1": "ECDSLRYYYAN", "CDR-L2": "GKNNRAS", "CDR-L3": "ASRDSSGFQVF", "replicates, log10 nM": "2.74 3.18 2.66", "mean log10 Kd (nM)": "2.86", "signal with controls": "3 of 9 (4.58)"}
{"CDR-L1": "HGDRLRYYYAN", "CDR-L2": "GKNNRPS", "CDR-L3": "SSRDSSGFQVI", "replicates, log10 nM": "1.99 1.95 2.32", "mean log10 Kd (nM)": "2.09", "signal with controls": "2 of 9 (4.19)"}
{"CDR-L1": "WGDSLRYYYAN", "CDR-L2": "GKNNEPS", "CDR-L3": "SSRDSSIFQVF", "replicates, log10 nM": "4.04 ND ND", "mean log10 Kd (nM)": "4.04", "signal with controls": "2 of 9 (3.38)"}
{"CDR-L1": "EGDSLFYYYAN", "CDR-L2": "GKNNCPS", "CDR-L3": "SSRDSSGEQVF", "replicates, log10 nM": "ND ND ND", "mean log10 Kd (nM)": "ND", "signal with controls": "1 of 9 (4.01)"}
{"CDR-L1": "ENDSLRYYYAN", "CDR-L2": "GKNNRPF", "CDR-L3": "SSRGSSGFQVF", "replicates, log10 nM": "ND ND ND", "mean log10 Kd (nM)": "ND", "signal with controls": "2 of 9 (4.37)"}
{"CDR-L1": "EGDSLEYYDAN", "CDR-L2": "GKGNRPS", "CDR-L3": "SSRDSSGFQVF", "replicates, log10 nM": "1.14 1.06 0.38", "mean log10 Kd (nM)": "0.86", "signal with controls": "1 of 9 (5.13)"}

The first 3 variants above that were never detected:

| CDR-L1 | CDR-L2 | CDR-L3 | replicates, log10 nM | mean log10 Kd (nM) | signal with controls |
|---|---|---|---|---|---|
| EGDSLRYYYAN | GKNNRHS | SSRDYSGFQGF | ND ND ND | ND | 2 of 9 (3.73) |
| EGDSLFYYYAN | GKNNCPS | SSRDSSGEQVF | ND ND ND | ND | 1 of 9 (4.01) |
| ENDSLRYYYAN | GKNNRPF | SSRGSSGFQVF | ND ND ND | ND | 2 of 9 (4.37) |